This note sets out measurements from ChEMBL document CHEMBL1125402, “Conformational effects on the activity of drugs. 13. A revision of previously proposed models for the activation of alpha- and beta-adrenergic receptors” (J Med Chem, 1992).

Amino acid sequences for entries named in this document (tags omitted). A change or cut given only in a name is not applied to a line headed by its entry.
UniProt P15823, whole entry, looked up: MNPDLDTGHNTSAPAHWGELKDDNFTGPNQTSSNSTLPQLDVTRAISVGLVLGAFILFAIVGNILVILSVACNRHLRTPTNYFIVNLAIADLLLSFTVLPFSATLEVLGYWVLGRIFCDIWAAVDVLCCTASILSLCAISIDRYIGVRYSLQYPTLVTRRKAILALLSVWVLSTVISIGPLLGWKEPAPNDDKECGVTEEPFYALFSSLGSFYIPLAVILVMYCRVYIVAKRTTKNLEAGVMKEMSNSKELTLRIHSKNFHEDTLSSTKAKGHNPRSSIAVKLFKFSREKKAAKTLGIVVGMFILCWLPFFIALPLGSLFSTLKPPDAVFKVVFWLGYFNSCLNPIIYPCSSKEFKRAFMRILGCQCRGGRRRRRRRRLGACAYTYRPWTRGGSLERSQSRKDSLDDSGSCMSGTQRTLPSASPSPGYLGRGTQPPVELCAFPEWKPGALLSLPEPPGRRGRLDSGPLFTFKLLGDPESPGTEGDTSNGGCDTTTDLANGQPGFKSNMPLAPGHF
UniProt P23944, whole entry, looked up: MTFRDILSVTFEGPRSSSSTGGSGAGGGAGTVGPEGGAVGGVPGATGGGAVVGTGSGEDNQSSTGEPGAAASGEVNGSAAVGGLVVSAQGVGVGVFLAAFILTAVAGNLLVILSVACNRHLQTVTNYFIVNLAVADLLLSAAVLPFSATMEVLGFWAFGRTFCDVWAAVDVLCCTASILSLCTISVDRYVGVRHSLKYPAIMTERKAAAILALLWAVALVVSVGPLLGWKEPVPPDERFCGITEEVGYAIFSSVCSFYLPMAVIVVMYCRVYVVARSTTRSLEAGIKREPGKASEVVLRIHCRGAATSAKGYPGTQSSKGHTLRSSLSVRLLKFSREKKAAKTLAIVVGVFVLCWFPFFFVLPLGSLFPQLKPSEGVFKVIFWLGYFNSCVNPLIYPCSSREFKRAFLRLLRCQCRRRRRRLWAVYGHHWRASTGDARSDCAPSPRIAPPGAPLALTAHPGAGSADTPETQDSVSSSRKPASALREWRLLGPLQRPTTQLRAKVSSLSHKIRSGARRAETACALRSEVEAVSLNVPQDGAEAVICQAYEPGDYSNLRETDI
UniProt P43140: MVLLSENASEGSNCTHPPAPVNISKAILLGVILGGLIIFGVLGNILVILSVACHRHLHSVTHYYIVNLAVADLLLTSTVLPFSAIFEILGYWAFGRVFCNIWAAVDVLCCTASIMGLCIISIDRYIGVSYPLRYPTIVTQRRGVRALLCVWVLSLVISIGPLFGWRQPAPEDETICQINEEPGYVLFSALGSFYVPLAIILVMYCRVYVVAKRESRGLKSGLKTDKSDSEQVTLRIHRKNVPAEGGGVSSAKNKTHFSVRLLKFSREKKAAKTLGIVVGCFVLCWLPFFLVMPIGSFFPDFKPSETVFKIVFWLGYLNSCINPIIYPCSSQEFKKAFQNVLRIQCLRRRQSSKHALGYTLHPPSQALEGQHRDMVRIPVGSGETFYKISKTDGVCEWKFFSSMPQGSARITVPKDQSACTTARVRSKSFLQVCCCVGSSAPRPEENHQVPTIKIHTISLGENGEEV

This test deals with Adrenergic receptor alpha-1 (Rattus norvegicus) (UniProt P15823+P23944+P43140). Nature of the test: Compound was evaluated for alpha adrenoceptor agonistic activity towards Alpha-1 adrenergic receptor of isolated rat vas deferens (exp 1). The format is functional, tissue-based.

`Oc1ccc(C2CNCCO2)cc1O` (configuration not stated) gave a pD2 of 4.75.

The compound `Oc1ccc(C2(O)CCCNC2)cc1O` (configuration not stated) came in with a pD2 of 4.53.
